Biological target: GluG R encoded by clone 45-A (Rattus norvegicus, UniProt P23385)
Assay: cell-based

Chains of the proteins cited; added tags and fusions are not shown. Residues count along the entry.
UniProt P23385, 19-1199: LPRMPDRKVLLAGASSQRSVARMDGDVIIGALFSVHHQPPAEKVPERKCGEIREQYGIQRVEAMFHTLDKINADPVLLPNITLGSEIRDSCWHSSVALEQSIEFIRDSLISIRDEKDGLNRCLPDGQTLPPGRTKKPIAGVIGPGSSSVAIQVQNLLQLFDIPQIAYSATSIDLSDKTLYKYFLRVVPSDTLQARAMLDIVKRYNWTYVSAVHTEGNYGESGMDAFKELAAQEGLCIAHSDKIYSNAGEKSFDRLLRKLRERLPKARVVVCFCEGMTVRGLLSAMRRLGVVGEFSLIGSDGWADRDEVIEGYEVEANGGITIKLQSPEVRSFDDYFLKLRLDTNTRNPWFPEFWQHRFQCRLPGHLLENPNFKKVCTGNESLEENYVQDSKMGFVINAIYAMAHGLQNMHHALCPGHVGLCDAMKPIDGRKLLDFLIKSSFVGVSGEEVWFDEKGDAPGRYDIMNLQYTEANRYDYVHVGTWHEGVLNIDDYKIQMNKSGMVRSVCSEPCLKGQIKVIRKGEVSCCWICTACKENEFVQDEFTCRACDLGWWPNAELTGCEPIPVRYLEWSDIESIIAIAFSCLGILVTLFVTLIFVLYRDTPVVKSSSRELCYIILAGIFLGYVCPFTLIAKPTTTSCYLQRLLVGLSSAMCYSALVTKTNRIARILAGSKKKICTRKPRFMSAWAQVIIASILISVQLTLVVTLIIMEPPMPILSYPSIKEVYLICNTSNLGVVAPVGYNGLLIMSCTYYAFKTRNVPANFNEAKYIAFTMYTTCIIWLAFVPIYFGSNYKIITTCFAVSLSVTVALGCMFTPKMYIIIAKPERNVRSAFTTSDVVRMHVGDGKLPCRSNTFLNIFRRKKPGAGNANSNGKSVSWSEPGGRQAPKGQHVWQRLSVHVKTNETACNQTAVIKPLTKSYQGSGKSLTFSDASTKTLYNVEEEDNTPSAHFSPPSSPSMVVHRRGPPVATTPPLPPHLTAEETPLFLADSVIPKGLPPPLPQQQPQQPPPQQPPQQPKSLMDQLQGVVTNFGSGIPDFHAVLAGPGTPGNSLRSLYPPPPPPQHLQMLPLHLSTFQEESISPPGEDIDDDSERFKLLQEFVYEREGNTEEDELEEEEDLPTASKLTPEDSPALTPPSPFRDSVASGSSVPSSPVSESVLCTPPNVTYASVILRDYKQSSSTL

In the case of N[C@@]1(C(=O)O)CC[C@@H](C(=O)O)C1 (relative stereo) [tACPD, trans 1-amino-cyclopentyl-1,3 dicarboxylic acid], the EC50 is reported as 376 µM.
